What all share (assay): flow cytometry on cells (Ig-fusion protein staining)
Common to all, as to conditions: chain shown with the change

The target in assay [1] is T1, HLA-G M76V+Q79R+T80K on 721.221 cells, P17693.
T1 chain: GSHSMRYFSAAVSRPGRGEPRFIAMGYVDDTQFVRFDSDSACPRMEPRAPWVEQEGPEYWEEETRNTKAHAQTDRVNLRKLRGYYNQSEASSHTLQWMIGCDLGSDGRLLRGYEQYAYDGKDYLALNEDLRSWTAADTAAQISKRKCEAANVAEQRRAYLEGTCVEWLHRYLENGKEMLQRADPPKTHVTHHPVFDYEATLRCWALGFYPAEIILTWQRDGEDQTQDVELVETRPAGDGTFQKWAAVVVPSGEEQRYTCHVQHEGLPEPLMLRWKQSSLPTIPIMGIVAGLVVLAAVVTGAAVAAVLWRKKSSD

Assay [2] deals with HLA-G, wild type, on 721.221 cells, P17693.
Assay [3] addresses HLA-G T80N on 721.221 cells, P17693.
For assay [4], the target named is T2, HLA-G M76V+Q79R+T80N on 721.221 cells, P17693.
T2 chain: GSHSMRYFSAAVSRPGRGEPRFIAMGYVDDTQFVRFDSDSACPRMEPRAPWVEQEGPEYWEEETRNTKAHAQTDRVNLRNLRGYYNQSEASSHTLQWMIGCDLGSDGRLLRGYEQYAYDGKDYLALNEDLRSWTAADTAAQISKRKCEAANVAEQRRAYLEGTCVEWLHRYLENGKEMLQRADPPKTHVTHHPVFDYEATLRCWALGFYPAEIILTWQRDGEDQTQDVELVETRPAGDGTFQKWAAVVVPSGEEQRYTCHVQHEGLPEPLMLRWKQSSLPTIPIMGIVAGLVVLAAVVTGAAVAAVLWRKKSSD

Assay [5] deals with HLA-G M76V on 721.221 cells, P17693.
Assay [6] concerns the target HLA-G M76V+Q79R on 721.221 cells, P17693.
Assay [7] concerns the target HLA-G T80K on 721.221 cells, P17693.
The target in assay [8] is HLA-G N151R on 721.221 cells, P17693.

Response data for 8 molecules are collected here from PMC2812487.

B1: m4; m6 KIR2DS2: KYK/KFK; HLA-G: M76V; HLA-G: Q79R; HLA-G: T80K (protein)
chain: HEGVHRKPSLLAHPGPLVKSEETVILQCWSDVRFEHFLLHREGKFKDTLHLIGEHHDGVSKANFSIGPMMQDLAGTYRCYGSVTHSPYQLSAPSDPLDIVITGLYEKPSLSAQPGPTVLAGESVTLSCSSRSSYDMYHLSREGEAHERRFSAGPKVNGTFQADFPLGPATHGGTYRCFGSFRDSPYEWSNSSDPLLVSVTGNPSNSWPSPTEPSSKTGNPRHLH
Regarding B1, the response in assay [1] came to 3.1 MFI.

B2: KIR2DS2-Ig, P43631 KYK/KFK (protein)
chain: HEGVHRKPSLLAHPGPLVKSEETVILQCWSDVRFEHFLLHREGKFKDTLHLIGEHHDGVSKANFSIGPMMQDLAGTYRCYGSVTHSPYQLSAPSDPLDIVITGLYEKPSLSAQPGPTVLAGESVTLSCSSRSSYDMYHLSREGEAHERRFSAGPKVNGTFQADFPLGPATHGGTYRCFGSFRDSPYEWSNSSDPLLVSVTGNPSNSWPSPTEPSSKTGNPRHLH
Take B2: the response in assay [2] turned out to be 2.8 MFI.

B3: m4; m6 KIR2DS2: KYK/KFK; HLA-G: T80N (protein)
chain: HEGVHRKPSLLAHPGPLVKSEETVILQCWSDVRFEHFLLHREGKFKDTLHLIGEHHDGVSKANFSIGPMMQDLAGTYRCYGSVTHSPYQLSAPSDPLDIVITGLYEKPSLSAQPGPTVLAGESVTLSCSSRSSYDMYHLSREGEAHERRFSAGPKVNGTFQADFPLGPATHGGTYRCFGSFRDSPYEWSNSSDPLLVSVTGNPSNSWPSPTEPSSKTGNPRHLH
In assay [3], B3 registered a response of 2.09 MFI.

B4: m4; m6 KIR2DS2: KYK/KFK; HLA-G: M76V; HLA-G: Q79R; HLA-G: T80N (protein)
chain: HEGVHRKPSLLAHPGPLVKSEETVILQCWSDVRFEHFLLHREGKFKDTLHLIGEHHDGVSKANFSIGPMMQDLAGTYRCYGSVTHSPYQLSAPSDPLDIVITGLYEKPSLSAQPGPTVLAGESVTLSCSSRSSYDMYHLSREGEAHERRFSAGPKVNGTFQADFPLGPATHGGTYRCFGSFRDSPYEWSNSSDPLLVSVTGNPSNSWPSPTEPSSKTGNPRHLH
Regarding B4, the response in assay [4] came to 362 MFI.

B5: m4; m6 KIR2DS2: KYK/KFK; HLA-G: M76V (protein)
chain: HEGVHRKPSLLAHPGPLVKSEETVILQCWSDVRFEHFLLHREGKFKDTLHLIGEHHDGVSKANFSIGPMMQDLAGTYRCYGSVTHSPYQLSAPSDPLDIVITGLYEKPSLSAQPGPTVLAGESVTLSCSSRSSYDMYHLSREGEAHERRFSAGPKVNGTFQADFPLGPATHGGTYRCFGSFRDSPYEWSNSSDPLLVSVTGNPSNSWPSPTEPSSKTGNPRHLH
Turning to B5, the response in assay [5] is 3.1 MFI.

B6: m4; m6 KIR2DS2: KYK/KFK; HLA-G: M76V; HLA-G: Q79R (protein)
chain: HEGVHRKPSLLAHPGPLVKSEETVILQCWSDVRFEHFLLHREGKFKDTLHLIGEHHDGVSKANFSIGPMMQDLAGTYRCYGSVTHSPYQLSAPSDPLDIVITGLYEKPSLSAQPGPTVLAGESVTLSCSSRSSYDMYHLSREGEAHERRFSAGPKVNGTFQADFPLGPATHGGTYRCFGSFRDSPYEWSNSSDPLLVSVTGNPSNSWPSPTEPSSKTGNPRHLH
Regarding B6, in assay [6], the response came to 2.3 MFI.

B7: m4; m6 KIR2DS2: KYK/KFK; HLA-G: T80K (protein)
chain: HEGVHRKPSLLAHPGPLVKSEETVILQCWSDVRFEHFLLHREGKFKDTLHLIGEHHDGVSKANFSIGPMMQDLAGTYRCYGSVTHSPYQLSAPSDPLDIVITGLYEKPSLSAQPGPTVLAGESVTLSCSSRSSYDMYHLSREGEAHERRFSAGPKVNGTFQADFPLGPATHGGTYRCFGSFRDSPYEWSNSSDPLLVSVTGNPSNSWPSPTEPSSKTGNPRHLH
Take B7: the response in assay [7] is 2.1 MFI.

B8: m4; m6 KIR2DS2: KYK/KFK; HLA-G: N151R (protein)
chain: HEGVHRKPSLLAHPGPLVKSEETVILQCWSDVRFEHFLLHREGKFKDTLHLIGEHHDGVSKANFSIGPMMQDLAGTYRCYGSVTHSPYQLSAPSDPLDIVITGLYEKPSLSAQPGPTVLAGESVTLSCSSRSSYDMYHLSREGEAHERRFSAGPKVNGTFQADFPLGPATHGGTYRCFGSFRDSPYEWSNSSDPLLVSVTGNPSNSWPSPTEPSSKTGNPRHLH
With B8, the response in assay [8] came out at 2.4 MFI.
